Test results reported in publication PMC10051608, “Multi-Compartmental Dissolution Method, an Efficient Tool for the Development of Enhanced Bioavailability Formulations Containing Poorly Soluble Acidic Drugs” (Pharmaceutics, 2023).
≈ marks a conversion by molar mass, not a printed value. Where two headings read alike, the source gives them in different places.

Test: Equilibrium solubility in biorelevant media, saturation shake-flask method
Assay type: physicochemical

With `CC(C)Cc1ccc(C(C)C(=O)O)cc1` (stereo not shown) [ibuprofen] the “SpH ± SD” value (FaSSGF, pH 1.6, 37 °C) was 56.0 ± 0.5 µg/mL, the “SpH ± SD” value (FaSSIF blank, pH 6.5, 37 °C) was 2513 ± 15 µg/mL and the solubility thermodynamic at 6 h (blank FaSSGF, pH 1.6, read-out: equilibrium solubility SBlankFaSSGF) was 56.3 µg/mL (≈ 0.273 mM). The solubility thermodynamic at 6 h (pH 6.5 blank FaSSIF, read-out: equilibrium solubility) was roughly 2500 µg/mL (≈ 12.1 mM).
